{
  "source": "patent US9765358B2",
  "about": "(priority 2015, dated 2017)",
  "test_system": "chimera C-1",
  "assay": "Antibiotic disc susceptibility test",
  "settings": "same discs and plates, anaerobic, 48 hours, 37° C.",
  "data": [
    {"compound": "Cc1ncc([N+](=O)[O-])n1CCO", "note": "[metronidazole]", "values": [
      {"measurement": "antibiotic susceptibility (disc, zone of clearance)", "value": "resistance"}
    ]}
  ]
}
